This is a selection; strong and weak results do not stand in their true shares. Inconclusive results are not listed. The source made the active and inactive calls. Calls come from the whole dose curve; as a rule, active = well fitted activation curve with a large enough effect; inconclusive = small, poorly fitted or top-dose-only effect; inactive = no such curve, though single readings can be large or run the other way.

This assay can be described thus: qHTS screen for small molecules that induce genotoxicity in human embryonic kidney (HEK293T) cells expressing luciferase-tagged ELG1. Note: % of control where 0% means no effect; nearly all actives have a fitted effect of over 60% in size. The note with it: HEK293T ELG1-luciferase reporter, luminescence, 16 h; at 46 µM (top of the series). The text has this: NIH Molecular Libraries Probe Production Network [MLPCN] NIH Chemical Genomics Center [NCGC] MLPCN Grant: 1 R03 MH092164-01 Assay Provider: Kyungjae Myung, NHGRI, NIH Keywords: MLPCN, qHTS, NCGC, genotoxicity, cancer Assay Overview: Cancer cells divide rapidly compared to normal cells in the body. During cell division, cancer cells need to duplicate their genome by DNA replication. The failure of genome duplication leads to cancer cells' death. Therefore, inhibitors of DNA replication could specifically kill cancer cells. Based on this concept, many chemotherapeutic agents were developed and have been used to treat cancer patients. However, there are a limited number of agents available in the clinical setting, and some of those that do exist have low efficacy and severe side effects. […] With this in mind, we developed a quantitative high-throughput ELG1-luciferase reporter gene assay. […]
Assay Protocol Summary: For genotoxicity screening, 2,000 cells in 5 uL/well were dispensed into white, solid-bottom 1536-well plates using a solenoid-based dispenser. […] 5 ul ONE-Glo (Promega) was then added to each plate and following a 30 min incubation at room temperature, luciferase activity was quantified on a ViewLux CCD-based plate reader.
(qHTS replaces the single test concentration by a dilution series.)
As for `CCC(=O)N(c1ccccc1)C1(COC)CCN(CCc2cccs2)CC1`, the activity change, positive = activation was inactive: -2.06%.
For `CCC(=O)N(c1ccccc1)C1(COC)CCN(CCn2nnn(CC)c2=O)CC1` the value was inactive: 0.893%.

(Values after PubChem BioAssay AID504466 (National Center for Advancing Translational Sciences (NCATS), 2011).)
